Read-outs that look alike come from different tables or passages of the source.

Amino acid sequences for entries named in this document (tags omitted). A change or cut given only in a name is not applied to a line headed by its entry.
UniProt Q9P1W9: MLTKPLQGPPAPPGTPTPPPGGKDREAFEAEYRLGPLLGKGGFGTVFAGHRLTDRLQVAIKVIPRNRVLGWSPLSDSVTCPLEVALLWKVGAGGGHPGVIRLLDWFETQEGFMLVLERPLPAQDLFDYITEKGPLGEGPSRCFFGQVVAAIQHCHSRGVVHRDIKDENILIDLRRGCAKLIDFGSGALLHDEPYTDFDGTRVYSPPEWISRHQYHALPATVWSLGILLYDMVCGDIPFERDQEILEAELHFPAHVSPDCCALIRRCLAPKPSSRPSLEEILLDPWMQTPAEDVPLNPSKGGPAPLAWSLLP
UniProt P11309, whole entry: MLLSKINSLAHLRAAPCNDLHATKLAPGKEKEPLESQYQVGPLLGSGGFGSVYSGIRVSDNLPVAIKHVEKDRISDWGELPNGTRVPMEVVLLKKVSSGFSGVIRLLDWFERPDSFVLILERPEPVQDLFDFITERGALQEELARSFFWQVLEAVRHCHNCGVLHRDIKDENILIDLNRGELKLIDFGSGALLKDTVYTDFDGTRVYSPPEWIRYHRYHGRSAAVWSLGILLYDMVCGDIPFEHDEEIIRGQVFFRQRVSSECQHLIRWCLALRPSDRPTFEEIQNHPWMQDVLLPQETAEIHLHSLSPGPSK

The target in one test is PIM2 (Homo sapiens (Human), UniProt Q9P1W9). The experiment in a line: Pim kinase binding activity, Caliper LC3000 microfluidic peptide phosphorylation assay, PIM2. The test is classed as biochemical. As to conditions: 10 μM ATP, 90 min, room temperature; read-out: PIM2 LC3K (KI). The protocol:
(§1) A fluorescent-labeled Pim-specific peptide substrate, was custom synthesized by American Peptide Company (Sunnyvale, Calif.). Reaction Buffer contained 10 mM HEPES, pH 7.2, 10 mM MgCl2, 0.01% Tween 20, 2 mM DTT. Termination Buffer contained 190 mM HEPES, pH 7.2, 0.015% Brij-35, 0.2% Coating Reagent 3 (Caliper Life Sciences, Hopkinton, Mass.), 20 mM EDTA. Separation Buffer contained 100 mM HEPES, pH 7.2, 0.015% Brij-35, 0.1% Coating Reagent 3, 1:200 Coating Reagent 8 (Caliper Life Sciences, Hopkinton, Mass.), 10 mM EDTA and 5% DMSO.
(§2) PIM reactions were carried out in a final volume of 10 μL per well in a 384-well plate. […] After 90 minutes of incubation at room temperature, the phosphorylation reaction was stopped by the addition of 10 μL Termination Buffer. The product and substrate in each independent reaction were separated on a 12-sipper microfluidic chip (Caliper Life Sciences, Hopkinton, Mass.) run on a Caliper LC3000® (Caliper Life Sciences, Hopkinton, Mass.). The separation of product and substrate was optimized by choosing voltages and pressure using Caliper's Optimizer software (Hopkinton, Mass.). The separation conditions used a downstream voltage of −500V, an upstream voltage of −2150V, and a screening pressure of −1.2 psi. […] Substrate conversion was calculated from the electropherogram using HTS Well Analyzer software (Caliper Life Sciences, Hopkinton, Mass.). Ki values for the test compound were calculated.

The target in the next test is PIM1 (Homo sapiens (Human), UniProt P11309). In kind it is biochemical. The note with it: 10 μM ATP, 90 min, room temperature; read-out: PIM1 LC3K (KI). The protocol: as §1, §2
Another test deals with BaF3 PIM1 cells. The experiment in a line: In vitro cell proliferation potency assay (Cell Titer Glo), BaF3 PIM1 cells. In kind it is cell-based, murine. As to conditions: read-out: Prolif BaF3_PIM 1 (IC50). The protocol: BaF3 parental line was obtained from the DSMZ repository. BaF3 lines transfected with PIM1 or PIM2 were generated. Mouse IL-3 was purchased from R&D Systems. G418 was purchased from Clontech. Media for BaF3 parental line contained RPMI, 10% FBS, 2 mM L-Glutamine, 2 ng/mL mIL-3. Media for BaF3 PIM1 & 2 lines contained RPMI, 10% FBS, 2 mM L-Glutamine, […]. Media for MM1.S (multiple myeloma cells) line contained RPMI, 10% FBS, 2 mM L-Glutamine.
BaF3, a murine interleukin-3 dependent pro-B cell line, parental cells, BaF3 PIM1 cells, BaF3 PIM2 cells, and MM1.S (multiple myeloma) cells were seeded at 2 k/well, 5 k/well, 5 k/well, and 10 k/well respectively, in a 384-well plate, at 45 μL/well. Test compound was added at 5 μL/well. BaF3 cells (parental and transfected) were incubated overnight, while MM1.S cells were incubated for 72 hours at 37° C., 5% CO2. CELL TITER GLO® Reagent (Promega) was added at 50 μL/well, the plates were incubated for 30 minutes, and their luminescence read on an HT Analyst. IC50/EC50 values for the test compound were calculated.
(ATP-based viability assays read luminescence as a measure of living cells.)

In the next test the target is PIM3 (Homo sapiens (Human), UniProt Q86V86). The test can be described thus: Pim kinase binding activity, Caliper LC3000 microfluidic peptide phosphorylation assay, PIM3. The test is classed as biochemical. As to conditions: 10 μM ATP, 90 min, room temperature; read-out: PIM3 LC3K (KI). The protocol:
as §1, §2

[1] abbreviates: Mus musculus, BaF3, BaF3 cells transfected with PIM1, incubated overnight.

Take `Cc1cncc(-c2cc3c(cn2)cnn3-c2cccc(N3CC(N)CCC3C)n2)n1` (single isomer, unassigned) [Compound 182, 6-methyl-1-[6-[6-(6-methylpyrazin-2-yl)pyrazolo[4,3-c]pyridin-1-yl]-2-pyridyl]piperidin-3-amine]: the Ki at PIM2 came out at 0.761 nM.

On to `Cc1cncc(-c2cc3c(cn2)cnn3-c2cccc(C3CCCC(N)C3)n2)n1` (single isomer, unassigned) [Compound 210, 3-[6-[6-(6-methylpyrazin-2-yl)pyrazolo[4,3-c]pyridin-1-yl]-2-pyridyl]cyclohexanamine], for which the inhibition constant (Ki) at PIM2 came out at 9.39 nM; at PIM1, 0.609 nM.

As to `Cc1cncc(-c2cc3c(cn2)cnn3-c2cccc(C3CCCC(N)C3)n2)n1` (single isomer, unassigned) [Compound 212, 3-[6-[6-(6-methylpyrazin-2-yl)pyrazolo[4,3-c]pyridin-1-yl]-2-pyridyl]cyclohexanamine], the inhibition constant (Ki) is 2.99 nM on PIM2 and 0.483 nM at PIM1. For the same compound, the 50% inhibitory concentration (IC50) with BaF3 PIM1 cells (BaF3 cells transfected with PIM1, incubated overnight) came out at 1600 nM.

In the case of `CCc1cncc(-c2cc3c(cn2)cnn3-c2cccc(N3CCNCC3)n2)c1` [Compound 104, 6-(5-ethylpyridin-3-yl)-1-(6-(piperazin-1-yl)pyridin-2-yl)-1H-pyrazolo[4,3-c]pyridine], on PIM2, the inhibition constant (Ki) is 3.86 nM.

Regarding `CCn1cc(-c2cc3c(cn2)cnn3-c2cccc(N3CCCNCC3)n2)cn1` [Compound 125, 1-(6-(1,4-diazepan-1-yl)pyridin-2-yl)-6-(1-ethyl-1H-pyrazol-4-yl)-1H-pyrazolo[4,3-c]pyridine], the IC50 in the test with BaF3 PIM1 cells (setting [1]) is 1400 nM. The Ki was determined as 0.226 nM on PIM3 and 0.29 nM on PIM1.

In the case of `CCn1cc(-c2cc3c(cn2)cnn3-c2cccc(N3CC[C@@H](O)C3)n2)cn1` [Compound 128, (R)-1-(6-(6-(1-ethyl-1H-pyrazol-4-yl)-1H-pyrazolo[4,3-c]pyridin-1-yl)pyridin-2-yl)pyrrolidin-3-ol], at PIM2, the Ki came out at 56.7 nM.

As to `Cc1cncc(-c2cc3c(cn2)cnn3-c2cccc(N3CCCNCC3)n2)n1` [Compound 138, 1-[6-(1 4-diazepan-1-yl)-2-pyridyl]-6-(6-methylpyrazin-2-yl)pyrazolo[4,3-c]pyridine], the half-inhibitory concentration (IC50) in the test with BaF3 PIM1 cells (setting [1]) was found to be 574 nM. Also, the figures for the inhibition constant (Ki) at PIM3 and at PIM1 were 0.0199 nM and 0.0204 nM, respectively.

For `Cc1cncc(-c2cc3c(cn2)cnn3-c2cccc(N3CC(N)CCC3C)n2)n1` (stereo not drawn) [Compound 171, 6-methyl-1-[6-[6-(6-methylpyrazin-2-yl)pyrazolo[4,3-c]pyridin-1-yl]-2-pyridyl]piperidin-3-amine], the inhibition constant (Ki) on PIM2 is 0.204 nM.

For the compound `FC(F)(F)Cn1cc(-c2cc3c(cn2)cnn3-c2ccnc(N3CCCNCC3)n2)cn1` [Compound 179, 1-(2-(1,4-Diazepan-1-yl)pyrimidin-4-yl)-6-(1-(2,2,2-trifluoroethyl)-1H-pyrazol-4-yl)-1H-pyrazolo-[4,3-c]pyridine], the figures for the inhibition constant Ki on PIM2 and at PIM1 were 5.1 nM and 0.402 nM, respectively. The IC50 with BaF3 PIM1 cells (setting [1]) turned out to be 376 nM.

Turning to `Cc1cncc(-c2cc3c(cn2)cnn3-c2cccc(N3CCCCC(N)C3)n2)n1` (stereo not drawn) [Compound 187, 1-[6-[6-(6-methylpyrazin-2-yl)pyrazolo[4,3-c]pyridin-1-yl]-2-pyridyl]azepan-3-amine], the IC50 in the test with BaF3 PIM1 cells (setting [1]) came to 963 nM. Further, the inhibitory constant (Ki) on PIM3 is 0.067 nM; at PIM1, 0.07 nM.

Consider `Cc1cncc(-c2cc3c(cn2)cnn3-c2cccc(N3CCNC[C@@H]3C)n2)n1` [Compound 196, 1-[6-[(2S)-2-methylpiperazin-1-yl]-2-pyridyl]-6-(6-methylpyrazin-2-yl)pyrazolo[4,3-c]pyridine], for which, in the test with BaF3 PIM1 cells (setting [1]), the half-inhibitory concentration (IC50) is 572 nM. In addition, the figures for the Ki at PIM3 and at PIM1 were 0.074 nM and 0.072 nM, respectively.

For the compound `Cc1cncc(-c2cc3c(cn2)cnn3-c2ccc(C(F)F)c(N3CCC[C@H](N)C3)n2)n1` [Compound 227, (S)-1-(3-(difluoromethyl)-6-(6-(6-methylpyrazin-2-yl)-1H-pyrazolo[4,3-c]pyridin-1-yl)pyridin-2-yl)piperidin-3-amine], the Ki on PIM2 amounted to 0.233 nM; at PIM1 it was 0.036 nM. The IC50 in the test on BaF3 PIM1 cells (setting [1]) was 869 nM.

With `OCC(O)c1cncc(-c2cc3c(cn2)cnn3-c2cccc(N3CCNCC3)n2)n1` (stereo not drawn) [Compound 277, 1-(6-(1-(6-(piperazin-1-yl)pyridin-2-yl)-1H-pyrazolo[4,3-c]pyridin-6-yl)pyrazin-2-yl)ethane-1,2-diol], the 50% inhibitory concentration (IC50) in the test with BaF3 PIM1 cells (setting [1]) came out at 912 nM. Moreover, the Ki was 0.142 nM on PIM3 and 0.224 nM on PIM1.

Turning to `NCCOc1cncc(-c2cc3c(cn2)cnn3-c2cccc(N3CCNCC3)n2)n1` [Compound 286, 2-((6-(1-(6-(piperazin-1-yl)pyridin-2-yl)-1H-pyrazolo[4,3-c]pyridin-6-yl)pyrazin-2-yl)oxy)ethanamine], the values for the inhibition constant (Ki) at PIM2 and at PIM1 were 0.806 nM and 0.105 nM, respectively. The IC50 with BaF3 PIM1 cells (setting [1]) worked out at 4200 nM.

Turning to `Cc1cncc(-c2cc3c(cn2)cnn3-c2cccc(N(C)C)n2)n1` [Compound 296, N,N-dimethyl-6-(6-(6-methylpyrazin-2-yl)-1H-pyrazolo[4,3-c]pyridin-1-yl)pyridin-2-amine], the inhibition constant (Ki) at PIM2 amounted to 9.69 nM; on PIM1 it was 0.727 nM. Also, the 50% inhibitory concentration (IC50) with BaF3 PIM1 cells (setting [1]) stood at 3800 nM.

With `FC1CCNCC1c1cccc(-n2ncc3cnc(-c4cnn(CC(F)(F)F)c4)cc32)n1` (stereo not drawn) [Compound 306, 1-(6-(4-fluoropiperidin-3-yl)pyridin-2-yl)-6-(1-(2,2,2-trifluoroethyl)-1H-pyrazol-4-yl)-1H-pyrazolo[4,3-c]pyridine], the Ki at PIM2 is 0.56 nM; at PIM1, 0.04 nM. For the same compound, in the test with BaF3 PIM1 cells (setting [1]), the IC50 turned out to be 129 nM.

A word on the Ki: it is the equilibrium dissociation constant of an inhibitor or competing ligand from its target. A word on the IC50: it is the concentration that gives 50% inhibition.

Values taken from patent publication US9434725B2, “5-azaindazole compounds and methods of use” (priority 2012, dated 2016).
